Test results as given in patent US20080003630.

Biological target: T1, GST-poly (Glu, Tyr) fusion protein
T1 chain: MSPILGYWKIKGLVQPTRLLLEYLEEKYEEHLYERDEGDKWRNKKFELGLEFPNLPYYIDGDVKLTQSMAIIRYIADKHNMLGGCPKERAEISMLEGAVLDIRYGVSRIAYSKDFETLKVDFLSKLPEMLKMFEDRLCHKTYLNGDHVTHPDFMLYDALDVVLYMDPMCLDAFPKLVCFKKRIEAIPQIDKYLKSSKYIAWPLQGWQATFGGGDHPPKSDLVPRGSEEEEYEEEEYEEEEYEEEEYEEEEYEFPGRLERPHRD

B1: EGF Receptor 1 Kinase, intracellular domain (ICD) (protein)
chain: HIVRKRTLRRLLQERELVEPLTPSGEAPNQALLRILKETEFKKIKVLGSGAFGTVYKGLWIPEGEKVKIPVAIKELREATSPKANKEILDEAYVMASVDNPHVCRLLGICLTSTVQLITQLMPFGCLLDYVREHKDNIGSQYLLNWCVQIAKGMNYLEDRRLVHRDLAARNVLVKTPQHVKITDFGLAKLLGAEEKEYHAEGGKVPIKWMALESILHRIYTHQSDVWSYGVTVWELMTFGSKPYDGIPASEISSILEKGERLPQPPICTIDVYMIMVKCWMIDADSRPKFRELIIEFSKMARDPQRYLVIQGDERMHLPSPTDSNFYRALMDEEDMDDVVDADEYLIPQQGFFSSPSTSRTPLLSSLSATSNNSTVACIDRNGLQSCPIKEDSFLQRYSSDPTGALTEDSIDDTFLPVPEYINQSVPKRPAGSVQNPVYHNQPLNPAPSRDPHYQDPHSTAVGNPEYLNTVQPTCVNSTFDSPAHWAQKGSHQISLDNPDYQQDFFPKEAKPNGIFKGSTAENAEYLRVAPQSSEFIGA
phosphorylation of the plate-bound substrate, ELISA with HRP-labeled p-Tyr (PY20) antibody, absorbance (650 nm): In either case of HER1 and IGF1R, as the tyrosine kinase amount increased, a measured value was increased
phosphorylation of the substrate with ATP, Western blotting with Anti-Phosphotyrosine clone 4G10: In +of all of (i to vii) in FIG. 1, a single band was observed at a position where the phosphorylated GST-poly (Glu, Tyr) fusion protein appears
